# UUG fidelity: modulators of start codon recognition fidelity in yeast. activity score, % at 18.7 µM. S. cerevisiae UUG-firefly luciferase reporter, luminescence/redox ratio. 350,000 compounds, 0.13% hits;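 active means replicate mean at a twofold rise or more, about +100% in these data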;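 further: firefly luciferase made from a UUG start codon reports start codon fidelity; reporter light over untreated wells divided by growth signal over untreated wells; some hits fall short of that in this replicate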
# Cneo AK release: Cryptococcus neoformans cell lysis inducers, primary screen, AK release luminescence, single concentration; C. neoformans lysis, adenylate kinase release luminescence, 4 h; normalised: neutral wells 0, clomiphene wells 100; lysis activity, % at 15 µM; 360,000 compounds, 0.2% hits;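 active = mean lysis activity across replicates of at least 80%, whatever share of replicates individually reach that level; inactive = mean lysis activity below 80%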
#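 Material: C. neoformans cells | Amount: Yeast cell density of 5 × 10^6 cells/mL | Medium: Fresh YPD growth medium | Dosing: Single dose | Times: Static 4 h at 37 °C with compound, 1 h detection | Detection: AK luminescence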
# C2C12 statin: suppressors of statin myotoxicity in C2C12 myotubes, primary screen, cell-based, single point, plate reader; C2C12 myotubes + simvastatin, ATP luminescence, 48 h; scaled: DMSO 0, geranylgeraniol control 100; rescue of ATP level, % at 7.49 µM; 330,000 compounds, 0.78% hits;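 active = mean ATP rescue above about 67%, or every replicate alone reaching that limit, limit read from the data, passing the limit was not always enough; inconclusive = no clear call, values can overlap the other calls; inactive = mean under the limit and some replicate under it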;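 also: myotubes were challenged with 10 µM simvastatin during compound exposure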
# miR-122 sensor: miR-122 Renilla sensor signal increase in Huh7, primary screen, miR-122 inhibitor project, cell-based, single point, plate reader. Huh7 miR-122 Renilla luciferase sensor, 48 h; neutral wells = 0, positive control = 100. 340,000 compounds, 0.3% hits. activation (reporter increase), % at 12.5 µM;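 active = mean replicate activation score at least 90 and every replicate individually at or above 90; inconclusive = only one of the two criteria met; inactive = neither criterion met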;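 also: higher luciferase means less miR-122 activity so hits act as miR-122 inhibitors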
# Numbers stand for hits; . = inactive; ? = inconclusive; / = no result given. The list is not random: actives were taken first. Their share in the collection is about 1.2%.
SMILES,UUG fidelity,Cneo AK release,C2C12 statin,miR-122 sensor
Cn1c(=O)c2c(nc(N3CCCCCC3)n2CC(O)COc2ccccc2)n(C)c1=O (centres undefined),.,.,.,.
C[C@H](CO)N1C[C@H](C)[C@H](CN(C)C(=O)C2CCC2)Oc2cc(C3=CCCC3)ccc2S1(=O)=O,.,.,.,.
CCCc1cc(Nc2c(C)n(C)n(-c3ccccc3)c2=O)n2c(nc3ccccc32)c1C#N,.,.,104,.
C[C@@H]1CCCCO[C@@H](CN(C)S(C)(=O)=O)[C@@H](C)CN([C@@H](C)CO)C(=O)c2cc(N(C)C)ccc2O1,/,/,.,.
Cc1cc(F)ccc1C(O)c1ncc(-c2ccccc2F)[nH]1 (centres undefined),.,.,.,112
Cc1cccc(C(O)c2ncc(-c3ccccc3F)[nH]2)c1C (centres undefined),.,.,.,96
Cc1ccc2ccccc2c1C(O)c1ncc(-c2ccccc2F)[nH]1 (centres undefined),.,.,.,175
COc1ccc(/C=C2\SC(N3CCc4ccccc4C3)=NC2=O)cc1,.,.,.,.
O=C1N=C(N2CCc3ccccc3C2)S/C1=C\c1cccc(O)c1,.,.,/,109
CCCN1[C@@H]2c3ccc(-c4cccc(F)c4)c(=O)n3C[C@H]1[C@H](CO)[C@H]2C(=O)NCC1CC1,/,.,.,/
CCCOc1ccc(C(O)(CCN2CCCCC2)c2ccccc2OC)cc1 (centres undefined),.,.,87,.
CCCCOc1ccc(C(O)(CCN2CCOCC2)c2ccccc2)cc1 (centres undefined),.,.,.,.
O=C(COc1ccc2c3c(c(=O)oc2c1)CCC3)N1CCCC1,.,.,.,.
O=C(O)COc1ccc2c3c(c(=O)oc2c1)CCC3,.,.,117,.
Cc1cccc(NC(=O)Nc2ccc3c(c2)C(=O)N(C)[C@@H]2CC[C@H](CC(=O)O)O[C@@H]2CO3)c1,.,.,.,.
Cc1c(NC(=O)C(Sc2ccccc2)c2ccccc2)cccc1[N+](=O)[O-] (centres undefined),.,.,112,.
C[C@H](O)C#Cc1ccc([C@H]2[C@H]3CN(C(=O)Nc4ccccc4)CCCCN3[C@H]2CO)cc1,.,.,.,.
Cc1ccc(NC(=O)C(=S)NCc2ccco2)cc1,.,.,135,.
Cc1ccc(NC(=O)CSCC(=O)NCc2ccco2)cc1,/,/,.,/
CC(=O)CCc1c[nH]c2c(C(=O)O)cccc12,.,.,104,.
N#C[C@@H]1[C@@H](c2ccc(C3=CCCCC3)cc2)[C@H](CO)N1C(=O)CN1CCOCC1,.,.,.,/
COc1cc(CO)cc(I)c1O[C@H]1C=C(C(=O)NCCO)C[C@@H](N(CC2CCCCC2)C(=O)c2cc3ccccc3oc2=O)[C@@H]1O,/,92,/,/
COc1cc(CO)cc(I)c1O[C@H]1C=C(C(=O)NCCO)C[C@@H](N(C(=O)c2cc3ccccc3oc2=O)C2CCCCCC2)[C@@H]1O,.,.,/,/
Cc1cc(Cl)c(S(=O)(=O)NCc2ccccc2)cc1OCC(N)=O,.,.,.,174
Cc1ccccc1NS(=O)(=O)c1cc(OCC(N)=O)c(C)cc1Cl,/,/,.,.
SMILES,UUG fidelity,Cneo AK release,C2C12 statin,miR-122 sensor
Cc1cc(Cl)c(S(=O)(=O)NCc2ccncc2)cc1OCC(N)=O,.,.,129,.
Cc1ccc(S(=O)(=O)NCc2ccncc2)cc1C,/,/,.,.
Cc1ccc(NS(=O)(=O)c2cc(OCC(N)=O)c(C)cc2Cl)cc1C,.,.,.,?
Cc1cc(C)c(C)c(S(=O)(=O)NCc2ccncc2)c1C,/,/,.,122
CCOC(=O)c1c(NC(=O)c2ccccc2N(C)S(=O)(=O)c2ccccc2)sc2c1CCCC2,.,.,/,162
COC(=O)c1ccccc1NC(=O)C1COc2ccccc2O1 (centres undefined),.,.,.,.
CCOC(=O)c1ccccc1NC(=O)C1COc2ccccc2O1 (centres undefined),.,.,94,.
COc1ccccc1-c1cn(CC[C@@H]2CC[C@H](NC(=O)C3CC3)[C@H](CO)O2)nn1,.,.,.,/
Cn1nnc2c(sc3nc(N4CCOCC4)c4c(c32)CCCC4)c1=O,.,.,118,.
O=c1[nH]nnc2c1sc1nc(N3CCOCC3)c3c(c12)CCCC3,.,.,/,.
CCS(=O)(=O)Nc1ccc2c(c1)C(=O)N(C)C[C@H](OC)[C@H](C)CN(Cc1ccccn1)[C@H](C)CO2,/,.,.,/
C(=Nn1cnnc1)c1ccc2c(c1)CCC2,.,82,.,.
C=CCC(O)(CCN1CCCCC1)c1ccccc1 (centres undefined),.,.,88,.
OC(CCN1CCCCC1)(c1ccccc1)c1ccccc1,.,.,.,.
O=C(NC1CCSc2ccccc21)c1cccc(OC(F)F)c1 (centres undefined),.,.,67,.
C/C(=N\NC(=O)c1ccc(CN2CCOCC2)cc1)c1ccc(NC(=O)c2ccccc2)cc1,.,.,.,.
Cc1cc(/C=N/NC(=O)c2ccc(CN3CCOCC3)cc2)c(C)n1-c1ccccc1,.,.,116,.
C[C@H]1CN([C@@H](C)CO)C(=O)c2cc(NC(=O)CCN3CCOCC3)ccc2O[C@H]1CN(C)C(=O)NC1CCCCC1,.,.,.,.
O=C(Nc1sc2c(c1C(=O)O)CCC2)c1cccs1,/,/,.,202
NC(=O)c1c(NC(=O)c2cccs2)sc2c1CCCCCC2,.,.,.,.
CCCc1cc(=O)oc2cc(OCc3nn[nH]n3)ccc12,.,.,.,164
CCCCc1cc(=O)oc2cc(OCc3nn[nH]n3)ccc12,/,/,.,.
C[C@H](O)C#Cc1cnc2c(c1)C(=O)N([C@@H](C)CO)C[C@@H](C)[C@@H](CN(C)C(=O)c1ccc(F)cc1)O2,.,.,.,/
C/C(=N/NS(=O)(=O)c1ccc(F)cc1)c1ccc(NC(=O)c2ccc(C)o2)cc1,.,.,.,132
O=c1[nH]c(N2CCOCC2)nc2c1CCCC2,.,.,117,.
SMILES,UUG fidelity,Cneo AK release,C2C12 statin,miR-122 sensor
CSc1nc2c(c(=O)[nH]1)CCCC2,.,.,119,.
CCCCSc1nc2c(c(=O)[nH]1)CCC2,.,.,.,.
CO[C@@H]1CN(C)C(=O)c2cc(NC(C)=O)ccc2OC[C@H](C)N(C(=O)c2ccncc2)C[C@@H]1C,.,.,.,.
Cc1noc(C)c1NC(=O)Nc1cccc2c1O[C@H](CN(C)Cc1ccc(C(F)(F)F)cc1)[C@H](C)CN([C@@H](C)CO)C2=O,.,.,.,.
NC(=O)c1ccc(-c2nnn(CC(=O)N(C3CCCC3)C3CCS(=O)(=O)C3)n2)cc1 (centres undefined),.,.,.,.
O=C(Cn1nnc(-c2ccncc2)n1)N(C1CCCCC1)C1CCCCC1,.,.,124,.
